From ChEMBL document CHEMBL3046299, “Neonicotinoid substituents forming a water bridge at the nicotinic acetylcholine receptor” (J Agric Food Chem, 2009)

System: Drosophila melanogaster
Assay: Displacement of [3H]IMI from nicotinic acetylcholine receptor in Drosophila melanogaster brain at Ki concentration

## O=[N+]([O-])N=C1NCCN1
  inhibition: 0%
